This note sets out measurements from patent publication EP4837907A1, “NOVEL COMPOUND USED AS CBP/P300 INHIBITOR, AND PHARMACEUTICAL COMPOSITION FOR PREVENTING OR TREATING CANCER, INFLAMMATORY DISORDERS, OR AUTOIMMUNE DISEASES COMPRISING SAME AS ACTIVE INGREDIENT” (dated 2026).

By UniProt entry, the sequences of proteins in these tests, tags left out. Residues count along the entry.
UniProt Q92793, 1085-1192 limits assumed: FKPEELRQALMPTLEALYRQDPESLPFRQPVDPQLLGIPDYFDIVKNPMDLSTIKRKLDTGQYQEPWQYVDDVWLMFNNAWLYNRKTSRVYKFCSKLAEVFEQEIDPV

In this experiment the target is CBP BRD protein (Homo sapiens, UniProt Q92793). The experiment is described as follows: CBP inhibitory activity, TR-FRET assay of the CBP bromodomain. To be noted: read-out: CBP BRD IC50, CBP BRD protein 7.5 nM, Ac-H4 peptide 85 nM, room temperature 2 hours. Here is the method: A time resolved fluorescence resonance energy transfer (TR-FRET) experiment was used to verify the activity of CBP bromodomain.
The assay was performed in a final volume of 14 µl, optimized based on a CREBBP time resolved fluorescence resonance energy transfer (TR-FRET) assay kit (BPS Bioscience, cat. 32619) to maximize an assay window, and performed in a final volume of 14 µl, while maximizing the assay window. A TR-FRET fluorescence acceptor and a Tb donor were diluted in an assay buffer containing 2-[4-(2-hydroxyethyl)piperazin-1-yl]ethanesulfonic acid (hereafter, referred to as an assay buffer, BPS Bioscience, cat. 33012), and 3 µl of each solution was transferred to all wells of a white 384-low-volume well plate (Corning, cat. 4513). 2 µl of 4X Ac-H4 peptide (final concentration 85 nM) was transferred to high control wells and test wells. Each compound was prepared at 10 concentration points by serially diluting 3-fold from the highest concentration in a dimethyl sulfoxide solvent. The compound at each concentration was then diluted in the assay buffer to prepare a diluted compound solution that was 4-fold more concentrated than the final concentration. 2 µl of each compound or dimethyl sulfoxide prepared in this way was distributed into an assay plate so that the final test concentration was a minimum of 0.5 µM to a maximum of 10 µM (final dimethyl sulfoxide concentration 1%). 6 µL of 1X assay buffer was added to low control wells and 2 µl was added to high control and test wells. Then, 2 µl of 4X CBP BRD protein (final concentration 7.5 nM, BPS bioscience, cat 31128) was added to initiate a PPI reaction. The plate was reacted at room temperature for 2 hours before measuring the signal. The TR-FRET signal was measured using an EnVision Multilabel plate reader (PerkinElmer; Mirror LNACE/DELFIA Dual/Bias). For data analysis, the values of each well were obtained using a TR-FRET ratio ((Signal 665 nm/Signal 615 nm) × 20000). Data analysis was performed using the TR-FRET ratio ((Signal 665 nm/Signal 615 nm) × 20000). Data were reported as percent inhibition compared to control wells based on the following equation: %Activity = ((FRETcompound - FRETLow av)/(FRETHigh av - FRETLow av)) × 100. IC50 analysis was determined by standard 4 parameter curve fitting according to an algorithm using GraphPad Prism 7.0 (GraphPad Software Inc., La Jolla, CA, USA). All data are expressed as mean ± standard error of the mean (SEM).
For orientation: In TR-FRET formats the signal depends on donor and acceptor labels being close together.

By IC50 is commonly meant the concentration needed to halve the response being measured. Regarding `CNS(=O)(=O)c1ccc2nc(-c3c[nH]c4cc(F)c(F)cc34)n(-c3ccc4c(c3)n(C)c(=O)n4C)c2c1`, the IC50 was in the range of 0.5 to 5 µM.
For `CNS(=O)(=O)c1ccc2nc(C3CCOC(C)(C)C3)n(-c3ccc4c(c3)n(C)c(=O)n4C)c2c1` (stereo not drawn) the value was more than 5 µM.
Next, `Cc1ccc2c(-c3nc4c(N(C)C)nccc4n3-c3ccc4c(c3)n(C)c(=O)n4C)c[nH]c2c1`: 0.5 to 5 µM; `CNS(=O)(=O)c1ccc2nc(-c3cncc4ccccc34)n(-c3ccc4c(c3)n(C)c(=O)n4C)c2c1`: more than 5 µM; `CNS(=O)(=O)c1ccc2nc(C(=O)Nc3ccncc3)n(-c3ccc4c(c3)n(C)c(=O)n4C)c2c1`: more than 5 µM.
With `Cn1c(=O)n(C)c2cc(-n3c(-c4cnc[nH]4)nc4ccccc43)ccc21`, the IC50 was more than 5 µM.
Turning to `CNS(=O)(=O)c1ccc2nc(-c3c[nH]c4ccc(Cl)cc34)n(-c3ccc4c(c3)n(C)c(=O)n4C)c2c1`, the IC50 is more than 5 µM.
With `Cn1c(=O)n(C)c2cc(-n3c(-c4cnc[nH]4)nc4c(Cl)ncnc43)ccc21`, the IC50 is more than 5 µM.
Next, `CNS(=O)(=O)c1ccc2nc(-c3c[nH]c4c(Cl)cccc34)n(-c3ccc4c(c3)n(C)c(=O)n4C)c2c1`: 0.5 to 5 µM.
For `CNS(=O)(=O)c1ccc2nc(-c3cnn(C)c3)n(-c3ccc4c(c3)n(C)c(=O)n4C)c2c1` the value was 0.5 to 5 µM; for `CNS(=O)(=O)c1ccc2nc(-c3c[nH]c4cc(F)ccc34)n(-c3ccc4c(c3)n(C)c(=O)n4C)c2c1`, 0.5 to 5 µM.
Turning to `CNS(=O)(=O)c1ccc2nc(-c3cccc(-c4cnn(C)c4)c3)n(-c3ccc4c(c3)n(C)c(=O)n4C)c2c1`, the IC50 was in the range of 0.5 to 5 µM.
For `COc1ccc2c(CCN(C)c3ncnc4c3nc(-c3ccn(C(C)C)c3)n4-c3ccc4c(c3)n(C)c(=O)n4C)c[nH]c2c1` the value was more than 5 µM; for `CCNS(=O)(=O)c1ccc2nc(-c3c[nH]c4cc(C)ccc34)n(-c3ccc4c(c3)n(C)c(=O)n4C)c2c1`, 0.5 to 5 µM; for `CNS(=O)(=O)c1ccc2nc(-c3c[nH]c4c(C5CC5)cccc34)n(-c3ccc4c(c3)n(C)c(=O)n4C)c2c1`, 0.5 to 5 µM.
For `CN(C)c1ncnc2c1nc(-c1c[nH]c3cccc(F)c13)n2-c1ccc2c(c1)n(C)c(=O)n2C` the value was 0.5 to 5 µM; for `Cn1c(=O)n(C)c2cc(-n3c(-c4cc5ccccc5[nH]4)nc4c(Cl)ncnc43)ccc21`, more than 5 µM.
For `Cc1ccc2c(-c3nc4c(Cl)nccc4n3-c3ccc4c(c3)n(C)c(=O)n4C)c[nH]c2c1` the value was more than 5 µM; for `CNS(=O)(=O)c1ccc2nc(C(=O)Nc3cccnc3)n(-c3ccc4c(c3)n(C)c(=O)n4C)c2c1`, more than 5 µM; for `CN(CCCN1CCCCCC1)c1ncnc2c1nc(-c1cc3cccnc3[nH]1)n2-c1ccc2c(c1)n(C)c(=O)n2C`, more than 5 µM.
As for `Cc1ccc2c(-c3nc4ccc(S(=O)(=O)NCC5CC5)cc4n3-c3ccc4c(c3)n(C)c(=O)n4C)c[nH]c2c1`, the IC50 was 0.5 to 5 µM.
Consider `CNS(=O)(=O)c1ccc2nc(-c3cccc4[nH]ncc34)n(-c3ccc4c(c3)n(C)c(=O)n4C)c2c1`, for which the 50% inhibitory concentration (IC50) is more than 5 µM.
Next, `CNS(=O)(=O)c1ccc2nc(-c3c[nH]c4ccc(F)cc34)n(-c3ccc4c(c3)n(C)c(=O)n4C)c2c1`: 0.5 to 5 µM; `CNS(=O)(=O)c1ccc2nc(-c3c[nH]c4ccc(C(F)(F)F)cc34)n(-c3ccc4c(c3)n(C)c(=O)n4C)c2c1`: more than 5 µM.
In the case of `CNS(=O)(=O)c1ccc2nc(-c3c[nH]c4c(Br)cccc34)n(-c3ccc4c(c3)n(C)c(=O)n4C)c2c1`, the IC50 was 0.5 to 5 µM.
Next, `Cn1cncc1-c1nc2ccccc2n1-c1ccc2c(c1)n(C)c(=O)n2C`: more than 5 µM; `Cc1ccc2c(-c3nc4ccccc4n3-c3ccc4c(c3)n(C)c(=O)n4C)c[nH]c2c1`: more than 5 µM.
For the compound `Cc1ccc2c(-c3nc4ccccc4n3-c3ccc4c(c3)n(C)c(=O)n4C)cn(C)c2c1`, the IC50 is more than 5 µM.
Next, `Cc1cccc(OCCN(C)c2ncnc3c2nc(-c2ccc4[nH]ccc4c2)n3-c2ccc3c(c2)n(C)c(=O)n3C)c1`: more than 5 µM; `CN(C)c1ncnc2c1nc(-c1c[nH]c3cc(F)ccc13)n2-c1ccc2c(c1)n(C)c(=O)n2C`: 0.5 to 5 µM; `CNS(=O)(=O)c1ccc2nc(-c3cnn(-c4ccccc4)c3F)n(-c3ccc4c(c3)n(C)c(=O)n4C)c2c1`: more than 5 µM.
Next, `Cn1c(=O)n(C)c2cc(-n3c(-c4c[nH]c5ccccc45)nc4ccccc43)ccc21`: more than 5 µM; `CN(Cc1cccc(-n2cccc2)c1)c1ncnc2c1nc(-c1cccc3[nH]cnc13)n2-c1ccc2c(c1)n(C)c(=O)n2C`: more than 5 µM; `Cc1ccc2c(-c3nc4c(Cl)ncnc4n3-c3ccc4c(c3)n(C)c(=O)n4C)c[nH]c2c1`: more than 5 µM.
For `CNS(=O)(=O)c1ccc2nc(-c3c[nH]c4ccccc34)n(-c3ccc4c(c3)n(C)c(=O)n4C)c2c1` the value was 0.5 to 5 µM; for `Cn1c(=O)n(C)c2cc(-n3c(-c4ccccc4)nc4ccccc43)ccc21`, more than 5 µM.
With `Cn1c(=O)n(C)c2cc(-n3c(-c4ccc(Br)cc4)nc4ccccc43)ccc21`, the IC50 is more than 5 µM.
On to `CCn1ccc2c(-c3nc4c(N(C)CCCN5CCCCCC5)ncnc4n3-c3ccc4c(c3)n(C)c(=O)n4C)cccc21`, for which the IC50 was more than 5 µM.
For `CNS(=O)(=O)c1ccc2nc(C3CCCC(=O)N3)n(-c3ccc4c(c3)n(C)c(=O)n4C)c2c1` (stereo not drawn) the value was more than 5 µM.
For `Cc1ccnc(-n2c(C)cc(-c3nc4c(N(C)CCN(C)c5ccccc5)ncnc4n3-c3ccc4c(c3)n(C)c(=O)n4C)c2C)c1`, the half-maximal inhibitory concentration (IC50) is more than 5 µM.
For `CNS(=O)(=O)c1ccc2nc(C3CCOC3)n(-c3ccc4c(c3)n(C)c(=O)n4C)c2c1` (stereo not drawn) the value was more than 5 µM.
Next, `CNS(=O)(=O)c1ccc2nc(-c3nccc4ccccc34)n(-c3ccc4c(c3)n(C)c(=O)n4C)c2c1`: 0.5 to 5 µM; `CNS(=O)(=O)c1ccc2nc(-c3c[nH]c4ccc(Br)cc34)n(-c3ccc4c(c3)n(C)c(=O)n4C)c2c1`: more than 5 µM; `Cn1c(=O)n(C)c2cc(-n3c(-c4cc5ccccc5[nH]4)nc4ccccc43)ccc21`: more than 5 µM.
For `CNS(=O)(=O)c1ccc2nc(-c3c[nH]c4cc(C5CCN(C(=O)OC(C)(C)C)CC5)ccc34)n(-c3ccc4c(c3)n(C)c(=O)n4C)c2c1` the value was more than 5 µM.
Consider `CNS(=O)(=O)c1ccc2nc(-c3c[nH]c4cccc(F)c34)n(-c3ccc4c(c3)n(C3CC3)c(=O)n4C3CC3)c2c1`, for which the IC50 was more than 5 µM.
For `CNS(=O)(=O)c1ccc2nc(-c3cn(CC4CC4)c4cc(C)ccc34)n(-c3ccc4c(c3)n(C)c(=O)n4C)c2c1` the value was more than 5 µM; for `CCn1c(=O)n(CC)c2cc(-n3c(-c4c[nH]c5cccc(F)c45)nc4ccc(S(=O)(=O)NC)cc43)ccc21`, more than 5 µM; for `CNS(=O)(=O)c1ccc2nc(-c3cn(C)nc3C3CC3)n(-c3ccc4c(c3)n(C)c(=O)n4C)c2c1`, more than 5 µM.
Next, `CNS(=O)(=O)c1ccc2nc(-c3cc4ccccc4cc3OC)n(-c3ccc4c(c3)n(C)c(=O)n4C)c2c1`: more than 5 µM.
For the compound `CNS(=O)(=O)c1ccc2nc(-c3c[nH]c4cc(Br)ccc34)n(-c3ccc4c(c3)n(C)c(=O)n4C)c2c1`, the 50% inhibitory concentration (IC50) was 0.5 to 5 µM.
Consider `CNC(=O)c1ccc2nc(-c3cc4ccccc4cc3OC)n(-c3ccc4c(c3)n(C)c(=O)n4C)c2n1`, for which the half-maximal inhibitory concentration (IC50) is more than 5 µM.
Consider `CNS(=O)(=O)c1ccc2nc(-c3c[nH]c4cc(C5=CCN(C(=O)OC(C)(C)C)CC5)ccc34)n(-c3ccc4c(c3)n(C)c(=O)n4C)c2c1`, for which the half-maximal inhibitory concentration (IC50) lay in the range of 0.5 to 5 µM.
As to `Cc1ccc2c(-c3nc4c(N(C)CCc5ccsc5)ncnc4n3-c3ccc4c(c3)n(C)c(=O)n4C)c[nH]c2c1`, the IC50 was more than 5 µM.
For `CNS(=O)(=O)c1ccc2nc(-c3cn(C)c4cc(C)ccc34)n(-c3ccc4c(c3)n(C)c(=O)n4C)c2c1` the value was more than 5 µM; for `CNS(=O)(=O)c1ccc2nc(-c3c[nH]c4cc(C)ccc34)n(-c3ccc4c(c3)C(C)(C)C(=O)N4C)c2c1`, more than 5 µM.
As to `Cc1ccc2c(-c3nc4c(N(C)C)ccnc4n3-c3ccc4c(c3)n(C)c(=O)n4C)c[nH]c2c1`, the IC50 is more than 5 µM.
For `CNS(=O)(=O)c1ccc2nc(-c3c[nH]c4ccc(C#N)cc34)n(-c3ccc4c(c3)n(C)c(=O)n4C)c2c1` the value was 0.5 to 5 µM.
For `CNS(=O)(=O)c1ccc2nc(-c3c[nH]c4cc(Br)ncc34)n(-c3ccc4c(c3)n(C)c(=O)n4C)c2c1` the value was more than 5 µM.
In the case of `Cc1cccc(OCCN(C)c2ncnc3c2nc(-c2c[nH]c4cc(Cl)ccc24)n3-c2ccc3c(c2)n(C)c(=O)n3C)c1`, the IC50 is more than 5 µM.
